Measurements taken from patent US20160153002A1, “METHOD FOR CELL MEMBRANE PERMEATION FOR COMPOUND” (HitGen LTD., priority 2013, published 2016).
Entries after “also recorded” stand apart in the source; their conditions may differ.

Test system: HepG2 cells
Test: Transmembrane transfer of molecular conjugates with X-tremeGENEsiRNA reagent, laser confocal / fluorescent microscopy
Details: for positioning in cells (penetration through the cell membrane / transfer into cells): 4 nmol, X-tremeGENEsiRNA reagent, 6 h, laser confocal microscope, FIG. 5 and FIG. 6

For “4-bromo-3-oxoacetic acid-5-(3-(((1-(4-fluorescein 19 polyA) 12-alkyl acetamidophenyl)-1H-1,2,3-triazole-4-methylene)(1-phenylcarbamoylpiperidine)-4-methyl)amino)phenyl)thiophene-2-formic acid [molecular conjugate 1]”, the “positioning in cells (penetration through the cell membrane / transfer into cells)” value was “penetrate through the cell membrane successfully and be transferred into cells; also recorded: transferred into cells, with most of them into the cytoplasm and a few of them into the cell nucleus” and the transfer efficiency (cells counted by phase contrast vs fluorescent microscope, FIG. 7C) was “over 80%”.
In the case of “4-bromo-3-oxo-tert-Butyl acetate-5-(3-((((1-phenyl carbamoylpiperidine)-4-methyl)-N-propargyl amine)phenyl)thiophene-2-methyl formate directly tagged with FITC”, the “positioning in cells (penetration through the cell membrane / transfer into cells)” value is reported as “cannot penetrate through the cell membrane into cells”.
